Measurements published in ChEMBL document CHEMBL2311497, “An optimized RAD51 inhibitor that disrupts homologous recombination without requiring Michael acceptor reactivity” (J Med Chem, 2013).

What was measured:
[1] = target: T1, DNA repair protein RAD51 homolog 1 (Homo sapiens) (UniProt Q06609); conditions: 59 uM
T1 sequence (whole entry): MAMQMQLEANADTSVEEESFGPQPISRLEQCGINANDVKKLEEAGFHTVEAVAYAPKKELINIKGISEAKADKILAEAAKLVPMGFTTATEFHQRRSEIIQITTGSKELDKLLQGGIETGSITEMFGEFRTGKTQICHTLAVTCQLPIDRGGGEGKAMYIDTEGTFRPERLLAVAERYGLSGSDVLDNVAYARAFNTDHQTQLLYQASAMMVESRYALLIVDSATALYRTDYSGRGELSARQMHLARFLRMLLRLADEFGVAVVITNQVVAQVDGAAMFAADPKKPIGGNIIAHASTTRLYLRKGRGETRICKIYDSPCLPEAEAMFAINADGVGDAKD

[2] = target: T1, DNA repair protein RAD51 homolog 1 (Homo sapiens); conditions: 10 uM
[3] = target: T1, DNA repair protein RAD51 homolog 1 (Homo sapiens); conditions: HEK293, 20 uM

Measured: inhibition

O=C1C(Cl)=C(N2CCOCC2)C(=O)N1c1ccc(Cl)c(Cl)c1
active: [1] tde | [2] | [3]

The source made the active and inactive calls.
